# Yeast mating assay B: variants of the scFv Ab-14

Binding partner: SARS-CoV-2 spike HR2 peptide, sequence PDVDLGDISGINAS.

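This is the validation round: designs drawn from the data on random variants, tested in the same kind of assay. Several design methods are mixed in this list. The assay is AlphaSeq: two haploid yeast populations carry antibody and antigen on their surface. Pairs that bind mate more often; barcode pairs of the diploids are counted by sequencing. Read counts were normalised to the haploid input and turned into Kd by a linear fit to BCL2-family pairs of known affinity, for each replicate. There are six technical replicates.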

Parent scFv Ab-14: VH joined to VL by the linker GGGGSGGGGSGGGGS. Changes lie in the light chain CDRs alone.
VH: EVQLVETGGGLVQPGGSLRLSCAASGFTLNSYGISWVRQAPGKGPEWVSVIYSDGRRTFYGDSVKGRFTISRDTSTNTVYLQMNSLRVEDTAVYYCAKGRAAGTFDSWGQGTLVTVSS
VL: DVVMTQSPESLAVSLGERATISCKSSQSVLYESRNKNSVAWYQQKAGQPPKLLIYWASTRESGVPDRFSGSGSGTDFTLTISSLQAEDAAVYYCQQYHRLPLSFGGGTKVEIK

The parent's light chain CDRs are KSSQSVLYESRNKNSVA, WASTRES, QQYHRLPLS; each variant's own CDRs replace them letter for letter.
Variants here have at most six changes.
Each Kd is an estimate from the mating assay, the geometric mean of the replicates in which the pair was seen; lower is stronger.
"no signal" means that the variant was in the library but no mating with the target was seen in any replicate; the authors take this as a sign of poor binding, and no number exists.
The list is sorted by this average, lowest first, undetected variants last.
Of ten entries with the parent sequence, four were seen in most replicates (averages 2.2 nM to 240 nM), three in one and three in none, so single entries are noisy.
A sequence measured in both rounds can read differently, since the two assays cover different ranges.
Empty control strains, which show no peptide, gave a signal in 4% of pairings with all light chain designs; the median was 430 nM and 95% of these signals were weaker than 38 nM. No background was subtracted. Also given: how often the same scFv was detected with the empty control strains.
The authors' rule: three or more of the six replicates give a measured affinity, fewer mean a poor binder.

The variant KSSQSWGYESRNKNSVA | EASTRES | QQYHRLPLS showed 170 pM (6 of 6 replicates; controls 0 of 18). With KSSISYLIESRNKNSVA | DASTRES | QQYHRLPLS the result was 190 pM (6 of 6 replicates; controls 0 of 18). The variant KLSQSVLYESRNKNSVA | EASTRES | QQYHRLPLS gave 470 pM (6 of 6 replicates; controls 0 of 18). The variant KMSQSVLYQSRNKNSVA | DASTRES | QQYHRLPLS showed 490 pM (6 of 6 replicates; controls 0 of 18). The variant KLMQSMEYESRNKNSVA | NASQRES | QQYHRLPLS showed 510 pM (6 of 6 replicates; controls 1 of 18).

The variant KLSQSVLYESRNKNSVA | DASTRCD | QQYHRLPLS gave 520 pM (6 of 6 replicates; controls 4 of 18). With KLDQGWLYESRNKNSVA | GASTRES | QQYHRLPLS the result was 540 pM (6 of 6 replicates; controls 5 of 18). The variant KVSQSELYESRNKNSVA | NASTRES | QQYHRLPLQ gave 620 pM (6 of 6 replicates; controls 1 of 18). With KMSQSHLYESRNKNSVA | NASTRET | QQYHRLPLS the result was 670 pM (6 of 6 replicates; controls 0 of 18). With KLPQSWLYESRNKNSVA | NASQRED | QQYHRLPLS the result was 750 pM (6 of 6 replicates; controls 2 of 18).

The variant KLDQSVLYESRNKNSVA | NASTRMS | QQYHRLPLS gave 770 pM (6 of 6 replicates; controls 2 of 18). For KIEQSVLYEDRNKNSVA | NASQRES | QAYHRLPLS, the assay gave 940 pM (6 of 6 replicates; controls 2 of 18). The variant KLMQSHLYESRNKNSVA | NASTRLS | QQYHRLPLS showed 950 pM (6 of 6 replicates; controls 0 of 18). The variant KLSQSMLYESRNKNSVA | HASQRLS | QQYHRLPLS gave 1.1 nM (6 of 6 replicates; controls 1 of 18). The variant KSSQSMLYESRNKNSVA | AASTRET | QQYHRLPLS showed 1.3 nM (6 of 6 replicates; controls 0 of 18).

For KSSQSVLGEQRNKNSVA | DASTRES | QQYHRLPLS, the assay gave 1.3 nM (6 of 6 replicates; controls 0 of 18). The variant KLDQGKLYESRNKNSVA | GASTRES | QQYHRLPLS gave 1.4 nM (6 of 6 replicates; controls 0 of 18). For KMSQSWLMESRNSNSVA | EASTRLS | QQYHRLPLS, the assay gave 1.4 nM (6 of 6 replicates; controls 2 of 18). The variant KSSQSMLYESRNKNSVA | HASTRED | QQYHRLPLS gave 1.5 nM (6 of 6 replicates; controls 0 of 18). The variant KVSQSQLYESRNFWSVA | NASTRES | QQYHRLPLS gave 1.6 nM (6 of 6 replicates; controls 0 of 18).

The variant YLSQSVLYESRNKNSVA | NASTREM | QQYHRLPLI gave 1.7 nM (6 of 6 replicates; controls 1 of 18). For KQSQSILGESRNKNSVA | DASTRES | QQYHRLPLS, the assay gave 2.2 nM (6 of 6 replicates; controls 0 of 18). The variant KVSQSWLMEQRNKNSVA | EASTRQS | QQYHRLPLS gave 2.4 nM (6 of 6 replicates; controls 5 of 18). The variant KSSISYLGESRNENSVA | NASTREQ | QQYHRLPLS gave 2.7 nM (6 of 6 replicates; controls 1 of 18). The variant KSSISYLYESRNKNSVA | AASYRES | QQYHRLPLS showed 2.8 nM (6 of 6 replicates; controls 2 of 18).

The variant KSSPSGLYESRMKNSVA | EASTRES | QQYHRLPLS showed 2.9 nM (6 of 6 replicates; controls 2 of 18). The variant KLPQSCLYESRNKNSVA | MASQRCS | QQYHRLPLS showed 3.0 nM (6 of 6 replicates; controls 1 of 18). With KLQQSVLYESRQKNSVA | NASTRLS | QQYHRLPLS the result was 3.2 nM (6 of 6 replicates; controls 1 of 18). With KFSQSVLYESRTKNSVA | NASTRES | QQYFRLALS the result was 3.5 nM (6 of 6 replicates; controls 1 of 18). With KVLQSVLYEGRNKNSVA | HASTRES | QQYHRLPLS the result was 4.2 nM (6 of 6 replicates; controls 0 of 18).

With KLSQSWMRESRNKNSVA | QASTREQ | QQYHRLPLS the result was 4.2 nM (6 of 6 replicates; controls 2 of 18). For KSSQSVLYESRPKNSLA | WASTREM | QQYDRLPLS, the assay gave 5.0 nM (6 of 6 replicates; controls 3 of 18). The variant GSSISYLYESRNKRSVA | EASQRES | QQYHRLPLS showed 13 nM (6 of 6 replicates; controls 0 of 18). The variant KSSQSVLYQSRFKNSVA | WASTREQ | QQYHRLPLS gave 20 nM (1 of 6 replicates; controls 0 of 18). With KSSQSVLYESRNKNSVA | WASTRES | QQYHRTPNS the result was 27 nM (1 of 6 replicates; controls 0 of 18).

The variant KSSWSELFESRNKNSVA | DASTRSS | QQYHRLPLS gave 78 nM (6 of 6 replicates; controls 0 of 18). With KSVQSVLYESRNKNSVA | KASEREI | QQYHRLPHS the result was 78 nM (1 of 6 replicates; controls 0 of 18). The variant KVSQSFLYESRNKNNVA | GASTRES | QQYHRLTLS showed 86 nM (2 of 6 replicates; controls 0 of 18). For KSSQSVLYESRNKNSVA | NANTRES | PQYHRLPLS, the assay gave 150 nM (6 of 6 replicates; controls 1 of 18). For KSSQTVEYESRNHNSVA | WTSTRES | QQYKRLPLS, the assay gave 180 nM (3 of 6 replicates; controls 1 of 18).

With KVSQSVLYESRTKNSVA | NASTRES | QQMHRLPLS the result was 3.0 µM (1 of 6 replicates; controls 1 of 18). The variant KSSQSVLYESRNKNSVA | WASRRES | QQYHRLPLS gave no signal (0 of 6 replicates; controls 0 of 18). The variant KSSQSVLYESRCKNSVA | WATTRES | QQYHRLNLS gave no signal (0 of 6 replicates; controls 0 of 18). The variant KWSQSVLYESRNKNSVA | WASTRES | QQTHRLPLS showed no signal (0 of 6 replicates; controls 0 of 18). The variant KSSQSVLFESRNKNSVA | WASTRES | QQYHRLPLF gave no signal (0 of 6 replicates; controls 1 of 18).

Excerpt, the final 6 entries:

CDR-L1,CDR-L2,CDR-L3,Kd,detected,signal with controls
KSSQTVEYESRNHNSVA,WTSTRES,QQYKRLPLS,180 nM,3/6,1/18
KVSQSVLYESRTKNSVA,NASTRES,QQMHRLPLS,3.0 µM,1/6,1/18
KSSQSVLYESRNKNSVA,WASRRES,QQYHRLPLS,no signal,0/6,0/18
KSSQSVLYESRCKNSVA,WATTRES,QQYHRLNLS,no signal,0/6,0/18
KWSQSVLYESRNKNSVA,WASTRES,QQTHRLPLS,no signal,0/6,0/18
KSSQSVLFESRNKNSVA,WASTRES,QQYHRLPLF,no signal,0/6,1/18

Reference: Li et al. 2023, doi:10.1038/s41467-023-39022-2. File: FLAb, binding data.